Earlier results as cited in patent US5852213A, “Mercaptoketones and mercaptoalcohols and a process for their preparation” (American Cyanamid Company, priority 1997, dated 1998).

Target: human collagenase
Details: Journal of Medicinal Chemistry 36, 4030-4039 (1993); read-out: IC50, inhibitor of human collagenase; cited from earlier work

In the case of `CNC(=O)[C@H](Cc1ccc(OC)cc1)NC(=O)C(CC(C)C)C(S)CC(=O)OCc1ccccc1` (stereo partly shown), the pIC50 is listed as 8.70.

pIC50: −log10 of the molar value.
